Reference: ChEMBL document CHEMBL5325394, “What We Have Gained from Ibogaine: α3β4 Nicotinic Acetylcholine Receptor Inhibitors as Treatments for Substance Use Disorders” (J Med Chem, 2023)

Amino acid sequences for entries named in this document (tags omitted).
UniProt P30926, whole entry: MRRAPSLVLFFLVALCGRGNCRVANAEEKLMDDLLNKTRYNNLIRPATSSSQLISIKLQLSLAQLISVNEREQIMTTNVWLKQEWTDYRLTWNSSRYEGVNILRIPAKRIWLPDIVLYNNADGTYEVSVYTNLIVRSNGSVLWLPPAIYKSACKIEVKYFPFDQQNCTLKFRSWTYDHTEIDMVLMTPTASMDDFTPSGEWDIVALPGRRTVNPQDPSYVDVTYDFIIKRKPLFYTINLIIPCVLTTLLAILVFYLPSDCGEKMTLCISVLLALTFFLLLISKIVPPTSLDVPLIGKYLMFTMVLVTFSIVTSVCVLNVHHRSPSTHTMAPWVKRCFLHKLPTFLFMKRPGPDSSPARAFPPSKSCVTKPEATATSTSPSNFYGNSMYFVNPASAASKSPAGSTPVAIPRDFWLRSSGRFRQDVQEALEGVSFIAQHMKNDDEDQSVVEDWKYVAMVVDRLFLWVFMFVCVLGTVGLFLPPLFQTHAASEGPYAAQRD
UniProt P32297, whole entry: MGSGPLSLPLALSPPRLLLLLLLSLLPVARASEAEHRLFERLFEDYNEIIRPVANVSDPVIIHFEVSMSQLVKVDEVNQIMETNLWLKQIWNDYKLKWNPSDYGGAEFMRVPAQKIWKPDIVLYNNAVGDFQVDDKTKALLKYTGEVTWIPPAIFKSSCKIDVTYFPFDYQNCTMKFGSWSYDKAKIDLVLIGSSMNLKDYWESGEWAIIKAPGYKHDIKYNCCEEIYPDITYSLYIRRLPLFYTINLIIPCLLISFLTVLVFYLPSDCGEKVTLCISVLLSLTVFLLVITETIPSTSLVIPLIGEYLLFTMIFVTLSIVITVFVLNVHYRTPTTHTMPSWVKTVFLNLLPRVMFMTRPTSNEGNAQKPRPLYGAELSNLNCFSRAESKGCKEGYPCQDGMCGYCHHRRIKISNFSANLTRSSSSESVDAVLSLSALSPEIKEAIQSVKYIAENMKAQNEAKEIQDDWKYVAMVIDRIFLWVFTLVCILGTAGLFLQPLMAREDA

Legend:
[1] = molecular target: T1, Neuronal acetylcholine receptor; alpha3/beta4 (Homo sapiens, UniProt P30926+P32297); assay: Antagonist activity at alpha3beta4 nAChRs (unknown origin) assessed as inhibition constant; type: protein-complex assay
[2] = molecular target: T1, Neuronal acetylcholine receptor; alpha3/beta4; assay: Antagonist activity at alpha3beta4 nAChR (unknown origin); type: protein-complex assay

Ki [1] | SMILES | IC50 [2]
600 nM | CNC1(C)[C@H]2CC[C@H](C2)C1(C)C (mixture of isomers) | 
 | CN1C2CCCC1CC(Nc1ccccc1Br)C2 (configuration not stated) | 30 nM
